{"sequences": {"note": "The chains behind the UniProt entries cited, without tags or fusion partners.", "UniProt P48736, whole entry": "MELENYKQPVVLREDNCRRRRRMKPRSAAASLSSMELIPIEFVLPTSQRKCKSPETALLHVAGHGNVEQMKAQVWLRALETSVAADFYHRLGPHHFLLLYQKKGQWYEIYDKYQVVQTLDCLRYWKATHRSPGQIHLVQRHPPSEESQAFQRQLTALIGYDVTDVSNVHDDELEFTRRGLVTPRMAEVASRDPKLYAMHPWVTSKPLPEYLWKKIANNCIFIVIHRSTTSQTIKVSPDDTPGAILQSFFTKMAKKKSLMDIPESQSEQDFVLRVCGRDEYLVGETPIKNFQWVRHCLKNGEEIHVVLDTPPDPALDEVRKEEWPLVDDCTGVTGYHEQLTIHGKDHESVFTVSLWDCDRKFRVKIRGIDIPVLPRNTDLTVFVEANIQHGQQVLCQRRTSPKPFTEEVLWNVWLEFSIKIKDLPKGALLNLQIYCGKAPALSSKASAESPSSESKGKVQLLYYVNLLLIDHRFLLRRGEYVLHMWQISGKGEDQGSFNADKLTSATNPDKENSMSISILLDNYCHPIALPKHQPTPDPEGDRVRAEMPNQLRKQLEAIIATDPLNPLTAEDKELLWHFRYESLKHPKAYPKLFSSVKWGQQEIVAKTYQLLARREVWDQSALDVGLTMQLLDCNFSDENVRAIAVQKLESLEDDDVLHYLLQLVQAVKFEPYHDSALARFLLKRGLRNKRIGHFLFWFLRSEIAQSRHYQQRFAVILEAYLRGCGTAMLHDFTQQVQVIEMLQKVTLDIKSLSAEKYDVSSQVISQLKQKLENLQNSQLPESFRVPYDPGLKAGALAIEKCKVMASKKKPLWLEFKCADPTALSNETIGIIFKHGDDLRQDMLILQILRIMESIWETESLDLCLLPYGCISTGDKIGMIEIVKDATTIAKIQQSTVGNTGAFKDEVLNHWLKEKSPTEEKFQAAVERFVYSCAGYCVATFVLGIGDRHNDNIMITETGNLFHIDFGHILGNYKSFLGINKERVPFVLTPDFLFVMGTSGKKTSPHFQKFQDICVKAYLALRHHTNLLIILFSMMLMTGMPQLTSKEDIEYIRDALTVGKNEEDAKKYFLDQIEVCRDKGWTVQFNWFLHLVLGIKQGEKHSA"}, "source": "patent US20220112217A1", "about": "“PYRAZOLOPYRIMIDINE DERIVATIVE AND USE THEREOF AS PI3K INHIBITOR” (MEDSHINE DISCOVERY INC., priority 2018, published 2022)", "key": {"[1]": {"molecular_target": "PI3K gamma (Homo sapiens, UniProt P48736)", "assay": "In vitro enzyme activity assay (ADP-Glo lipid kinase), PI3K gamma", "conditions": "read-out: PI3Kγ IC50; ATP 25 μM, PIP2:3PS 50 μM, 120 min"}, "[2]": {"assay": "Plasma protein binding rate, mouse", "type": "in vitro ADME"}, "[3]": {"system": "Jeko-1 cell", "assay": "Jeko-1 cell test (IgM-stimulated, phosphorylated AKT readout)", "conditions": "read-out: Jeko-1 Cell IC50; 2 h compound, IgM stimulation 10 min, phospho-AKT"}, "[4]": {"assay": "In vivo DMPK study, single dose in female Balb/c mice"}, "[5]": {"assay": "Plasma protein binding rate, human", "type": "in vitro ADME"}}, "data": [{"smiles": "COc1ccc(-c2nn(C(C)c3nc4ccc(F)cn4c(=O)c3-c3cccc(F)c3)c3ncnc(N)c23)cc1F", "note": "(stereo not drawn) [WX009]", "values": [{"measurement": "IC50", "setting": "[1]", "result": 427, "unit": "nM"}, {"measurement": "PPB % (plasma protein binding rate)", "setting": "[2]", "result": 92.3, "unit": "%"}, {"measurement": "IC50", "setting": "[3]", "result": 273, "unit": "nM"}, {"measurement": "Cmax", "setting": "[4]; oral 3 mg/kg, female Balb/c mice", "result": 2860, "unit": "nM"}, {"measurement": "Oral DNAUC (dose-normalized area under curve)", "setting": "[4]; oral, mice", "result": 4968, "unit": "nM · h/mpk"}, {"measurement": "PPB % (plasma protein binding rate)", "setting": "[5]", "result": "86.9%,"}]}]}
